Compound activity from PubChem BioAssay.
The list is not random: actives were taken first. Their share in the collection is about 16%.
miR-21 FLuc = miR-21 reporter, rising signal | 340,000 tested, under 10 active | AID 2288 | HeLa miR-21 FLuc reporter, luciferase, 48 h | Potency, µM (titrated, usually from 38.3 µM), for inactives: at the highest dose reporter change, positive = more light; active = well fitted rising curve with a large enough effect; inconclusive = small, poorly fitted or top-dose-only effect; inactive = no such curve, though single readings can be large or run the other way;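 further: % of control where 0% means no effect; miR-21 action dims this reporter so a rising signal means less miR-21 action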
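Using DMEM plus 10% FBS, HeLa miR-21-FLuc cells are incubated with test compounds (final up to about 40uM) for 48 hours; firefly luciferase signal is then imaged following reagent-mediated lysis.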
DT40 TDP1 no CPT = qHTS for Inhibitors of human tyrosyl-DNA phosphodiesterase 1 (TDP1): qHTS in cells in absence of CPT; DT40 Tdp1-/- hTDP1 cells, no CPT, ATP luminescence, 48 h; Potency, µM (doses to about 46.2 µM), for inactives: top-dose activity change, negative = growth inhibition, actives largely listed as inhibitors; 15% of 420,000 active; AID 686978, 2013; further: potency means the concentration at half of the fitted maximal effect; on the % scale 0 is the no-effect control and ±100 the full control effect; nearly all actives have a fitted effect of over 55% in size
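Growth kinetics read by CellTiter-Glo luminescence after ≥48 hr at 37 °C. Cells: DT40 Tdp1-/- stably carrying human TDP1, 400 per well, compound exposure in the absence of CPT (DMSO vehicle).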
uPA surface inh = inhibitors of cell surface uPA generation; cell surface uPA generation assay, qHTS; 0.31% of 330,000 active; AID 540303; Potency, µM (series often up to 38.3 µM), for the others: at the highest dose activity change, negative = inhibition, hits mostly inhibitors; active means well fitted inhibition curve with a large enough effect; inconclusive means small, poorly fitted or top-dose-only effect; inactive means no such curve, though single readings can be large or run the other way; tested in mouse RAW 264.7 cells; further: potency means the concentration at half of the fitted maximal effect; on the % scale 0 is the no-effect control and ±100 the full control effect; nearly all actives have a fitted effect of over 55% in size
TDP1 block = TDP1 (human) enzyme inhibition; Q9NUW8; 0.28% of 350,000 active; recombinant TDP1, AlphaScreen DNA substrate cleavage; AID 485290; Potency, µM (titrated, usually from 130 µM), for the others: at the highest dose activity change, negative = inhibition, hits mostly inhibitors; further: potency means the concentration at half of the fitted maximal effect; on the % scale 0 is the no-effect control and ±100 the full control effect; nearly all actives have a fitted effect of over 40% in size
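Tdp1 1 nM final; 15 min RT w/ cpd; substrate 15 nM, 5 min; beads 10 ug/ml, 10 min; AlphaScreen read. Neg ctrl: no enzyme.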
DT40 TDP1 CPT = DT40-hTDP1 cell growth loss with CPT. Potency, µM (highest dose often 46.2 µM), for inactives: at the top dose activity change, negative = growth inhibition, usual class: inhibitors. chicken DT40 Tdp1-/-;hTDP1 cells + 20 nM CPT, ATP luminescence, 48 h. 12% of 420,000 active; further: potency means the concentration at half of the fitted maximal effect; on the % scale 0 is the no-effect control and ±100 the full control effect; nearly all actives have a fitted effect of over 55% in size
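Chicken DT40 Tdp1-/- cells complemented with human TDP1, 400 cells/well, exposed to compounds plus 20 nM camptothecin for at least 48 h at 37 C; viability read as ATP content by CellTiter-Glo luminescence.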
Starred values were filed as active, the others as inactive; ? = inconclusive; . = no result; [ ] = remark or other dose. Unless noted, the call rests on the fitted dose curve; in most records, active means well fitted curve in the direction sought with a large enough effect; inconclusive means small, poorly fitted or top-dose-only effect, or another doubt; inactive means no such curve, though single readings can be large; an effect the other way counts as inactive or inconclusive.

Letters – A = miR-21 FLuc; B = DT40 TDP1 no CPT; C = uPA surface inh; D = TDP1 block; E = DT40 TDP1 CPT
(1) CCC(C)NC(=O)C1CCN(S(=O)(=O)c2cccnc2)CC1 (stereo not drawn)
  A: 4%; B: -9%; C: 4%; D: 0%; E: -6%
(2) CCc1ccc(C(=O)COC(=O)C(NC(=O)C2CCC(C)CC2)C(C)C)cc1 (stereo not drawn)
  A: 1%; B: ?; C: .; D: .; E: -19%
(3) CC1CCC(C(=O)NC(C(=O)OCC(=O)c2ccc(Br)cc2)C(C)C)CC1 (stereo not drawn)
  A: -1%; B: 21µM*; C: .; D: .; E: ?
(4) COC(=O)Cn1nc(-c2ccc(C)cc2)c2ccccc2c1=O
  A: -10%; B: ?; C: 4%; D: 1%; E: -22%
(5) COc1ccc(/C(C)=N/Nc2nc3ccccc3nc2C)cc1
  A: -58%; B: 23µM*; C: -14%; D: .; E: ?
(6) Cc1ccc([C@H]2Nc3ccc(S(=O)(=O)Nc4cccc(Cl)c4C)cc3[C@H]3C=CC[C@H]32)cc1
  A: 0%; B: ?; C: .; D: 4%; E: ?
(7) COC(=O)c1ccc(C2Nc3ccc(/C(C)=N/NC(=O)C(OC)c4ccccc4)cc3C3C=CCC32)cc1 (stereo not drawn)
  A: -13%; B: 15µM*; C: 2%; D: 0%; E: 13µM*
(8) CC(=O)c1ccc2c(c1)C1C=CCC1C(c1ccncc1)N2 (stereo not drawn)
  A: -33%; B: ?; C: -1%; D: 7%; E: -18%
(9) COC(=O)c1ccc([C@H]2Nc3ccc(S(=O)(=O)Nc4cccc(C)c4)cc3[C@H]3C=CC[C@H]32)cc1
  A: -3%; B: 1.2µM*; C: .; D: .; E: 1.8µM*
(10) COc1cccc([C@H]2Nc3ccc(S(=O)(=O)Nc4cc(C)ccc4C)cc3[C@H]3C=CC[C@H]32)c1
  A: 4%; B: 5.2µM*; C: .; D: .; E: 3.7µM*
(11) Cc1ccc(NS(=O)(=O)c2ccc3c(c2)[C@H]2C=CC[C@H]2[C@@H](c2ccc(F)cc2)N3)cc1C
  A: 3%; B: 5.2µM*; C: .; D: .; E: 8.2µM*
(12) CCOc1ccc(S(=O)(=O)NC2CC2)cc1
  A: -4%; B: -2%; C: 3%; D: .; E: 2%
(13) Cc1csc(NC(=O)Cn2cnnn2)n1
  A: 0%; B: -11%; C: 1%; D: 6%; E: -3%
(14) C=CCn1c(C)c(C(C)=O)c(N2CCN(C(c3ccccc3)c3ccccc3)CC2)nc1=S
  A: 25%; B: 23µM*; C: 0%; D: 2%; E: ?
(15) CC(=O)c1c(N2CCN(C)CC2)nc(=S)n(Cc2ccccc2)c1C
  A: 1%; B: 9%; C: 1%; D: -1%; E: -7%

Complete entries, quoted from the list:
Record of `COc1ccc(/C(C)=N/Nc2nc3ccccc3nc2C)cc1` = miR-21 FLuc = -58%; DT40 TDP1 no CPT = 23µM*; uPA surface inh = -14%; TDP1 block = .; DT40 TDP1 CPT = ?
Record of `COC(=O)c1ccc([C@H]2Nc3ccc(S(=O)(=O)Nc4cccc(C)c4)cc3[C@H]3C=CC[C@H]32)cc1` = miR-21 FLuc = -3%; DT40 TDP1 no CPT = 1.2µM*; uPA surface inh = .; TDP1 block = .; DT40 TDP1 CPT = 1.8µM*

Carrying on.
Letters – A = miR-21 FLuc; B = DT40 TDP1 no CPT; C = uPA surface inh; D = TDP1 block; E = DT40 TDP1 CPT
(16) Cc1oc2ncn(CC(C)C)c(=O)c2c1C(=O)N(CCN(C)C)Cc1ccccc1
  A: -6%; B: -9%; C: .; D: 2%; E: -22%
(17) CC(C)(C)NC(=O)C(c1ccccn1)N(C(=O)c1ccc2c(c1)OCCO2)C1CCCC1 (stereo not drawn)
  A: 0%; B: -16%; C: 3%; D: 6%; E: -16%
(18) Cc1ccc(C2c3c(oc4ccccc4c3=O)C(=O)N2c2nnc(C)s2)cc1 (stereo not drawn)
  A: 0%; B: 21µM*; C: .; D: 12%; E: 13µM*
(19) Cc1nnc(N2C(=O)c3oc4ccccc4c(=O)c3C2c2ccc(Cl)cc2)s1 (stereo not drawn)
  A: 4%; B: -24%; C: .; D: 6%; E: -22%
(20) CN(C)c1ccc(/C=N/N=C(N)N)cc1[N+](=O)[O-]
  A: -1%; B: 13µM*; C: -8%; D: 0%; E: ?
(21) CN(C)c1ccc(C=O)cc1[N+](=O)[O-]
  A: .; B: -25%; C: .; D: .; E: 3%
(22) COC(=O)C(Cc1cccc(C)n1)(c1ccccc1)c1ccccc1
  A: -1%; B: -3%; C: -9%; D: .; E: ?
(23) Cc1ccc(CNC(=O)c2nnn(CC(=O)Nc3cc(C)cc(C)c3)c2N)cc1
  A: -2%; B: 20%; C: 4%; D: -15%; E: -5%
(24) O=C1NC[C@H](Cc2ccccc2)N(C[C@H]2CCCN2C[C@H](Cc2ccccc2)N2C[C@H](Cc3ccccc3)N(CC3CCCCC3)C(=O)C2=O)C1=O
  A: .; B: ?; C: ?; D: .; E: 21µM*
(25) O=C1NC[C@H](Cc2ccccc2)N(C[C@@H]2CCCN2C[C@H](Cc2ccccc2)N2C[C@H](Cc3ccccc3)N(CC3CCCCC3)C(=O)C2=O)C1=O
  A: .; B: 23µM*; C: .; D: .; E: 16µM*
(26) CC(C)C[C@H]1CN([C@@H](Cc2ccccc2)CN2CCC[C@@H]2CN2C(=O)C(=O)NC[C@@H]2Cc2ccc(O)cc2)C(=O)C(=O)N1CC1CCCCC1
  A: .; B: ?; C: .; D: .; E: -23%
(27) O=C1NC[C@H](Cc2ccc(O)cc2)N(C[C@H]2CCCN2C[C@H](Cc2ccc(O)cc2)N2C[C@H](Cc3ccc(O)cc3)N(CCc3ccccc3)C(=O)C2=O)C1=O
  A: .; B: 0%; C: .; D: .; E: -14%
(28) Cc1ccc(-c2csc3nnc(SCc4csc(C)n4)n23)cc1
  A: -9%; B: -22%; C: .; D: 7%; E: -20%
(29) CCc1nn(C(CC)C(=O)NCc2ccc(F)cc2)c(=O)c2cc3occc3n12 (stereo not drawn)
  A: -8%; B: -20%; C: .; D: 0%; E: ?
(30) N#Cc1cc(Cl)c(N2CCOCC2)cc1C#N
  A: -22%; B: -29%; C: 0%; D: 5%; E: -15%
(31) N#Cc1cc2ccc(N3CCOCC3)cc2cc1C#N
  A: -5%; B: 12µM*; C: -5%; D: 2%; E: 7.3µM*
(32) Cc1cccc(NC(=O)C2CCN(C(=O)c3ccccc3C)CC2)n1
  A: .; B: -13%; C: -2%; D: 0%; E: -10%
(33) CC(=O)c1sc(NC(=O)C2CCN(C(=O)c3ccccc3C)CC2)nc1-c1ccccc1
  A: .; B: ?; C: 16%; D: .; E: 18µM*
(34) Cn1ncc([N+](=O)[O-])c1C(=O)Nc1nc2ccccc2n1CCN1CCCCC1
  A: -1%; B: ?; C: -3%; D: 8%; E: -20%
(35) CCCn1c(NC(=O)c2cccc(C)c2C)nc2ccccc21
  A: 9%; B: 15µM*; C: -17%; D: 5%; E: 13µM*
(36) CCCn1c(NC(=O)C2CCN(C(=O)c3ccccc3C)CC2)nc2ccccc21
  A: .; B: ?; C: -1%; D: .; E: 16µM*
(37) CCCn1c(NC(=O)c2ccc([N+](=O)[O-])o2)nc2ccccc21
  A: .; B: ?; C: -6%; D: 3%; E: 21µM*
(38) CC(Sc1nc2ccccc2n1C)C(=O)Nc1ccc(N2CCOCC2)cc1 (stereo not drawn)
  A: -11%; B: -9%; C: -8%; D: 5%; E: -4%
(39) CCCCC#CC1C=CC(Oc2ccc(C(=O)OC)cc2)C(COC(=O)OCC)O1 (stereo not drawn)
  A: .; B: .; C: .; D: 6%[21 µM]; E: .
(40) CC(C)C[C@@H]1NC(=O)N(CCN2CCOCC2)C1=O
  A: -1%; B: -1%; C: 2%; D: 1%; E: -1%
(41) O=C(CCl)NC(Cc1ccccc1)c1ccccc1 (stereo not drawn)
  A: ?; B: 23µM*; C: -7%; D: 2%; E: 15µM*
(42) CC(=O)C(Cc1ccccc1)NC(=O)CCl (stereo not drawn)
  A: 21%; B: -9%; C: ?; D: 3%; E: ?
(43) CC(C)(C)c1ccc(-c2nc(NC(=O)CSc3ncnc4sc5c(c34)CCCC5)ns2)cc1
  A: -8%; B: 4.1µM*; C: .; D: 5%; E: ?
(44) Cc1ccc(-c2nc(NC(=O)CSc3nc(C)nc4sc5c(c34)CCCC5)ns2)cc1
  A: -1%; B: 6.5µM*; C: .; D: 2%; E: 12µM*
